A short description of data set [1]: Determination of aqueous stability (UHPLC-DAD, 4 h at 37 °C). The format is physicochemical. The following applies: for Aqueous stability pH = 6.8: compound concentration after 4 h of incubation compared to the initial value: pH 6.8 simulated intestinal fluid. The protocol: The aqueous solutions and buffers were prepared as follows: pH = 1.2, 1.0 g NaCl and 3.5 mL HCl dissolved in distilled water to achieve the final volume of 500.0 mL; pH = 6.8, 20.2 g Na2HPO4·7H2O and 3.4 g NaH2PO4·H2O dissolved in distilled water to achieve the final volume of 1000.0 mL, pH adjustment with 0.5 M NaOH or 0.5 M HCl; pH = 7.4, one PBS tablet (phosphate buffered saline, pH 7.4; Sigma Aldrich, St. Louis, MO, USA) dissolved in 200.0 mL of distilled water.
With the aforementioned buffers, 10 mM dimethyl sulfoxide stock solutions of the isolated compounds were diluted 100-fold. […] Statistical differences between the AUC values were evaluated by a paired-sample t-test, changes were considered significant when the p-values were lower than 0.05. Compounds with no notable change in their AUC and with no degradation products detected were considered to be stable. For degradable compounds, the above-mentioned validated UHPLC-DAD method was used to examine the change in compound concentration. All experiments were performed in triplicates (n = 3).

A short description of data set [2]: Parallel artificial membrane permeability assay for the blood–brain barrier (PAMPA-BBB). It is filed as in vitro ADME. The following applies: donor pH 7.4, acceptor pH 7.4, 37 °C, 4 h, n = 9; Pe in cm/s; n.d. = not detected in the acceptor phase. The protocol: (§1) The test solutions were prepared with dimethyl sulfoxide (DMSO) at the concentration of 10.0 mM. These were diluted with phosphate buffers (pH = 7.4 for the PAMPA-BBB and pH = 6.8 for the PAMPA-GI) to obtain the donor solutions (297.0 μL buffer + 3.0 μL DMSO solution) and filtered through Phenex-RC 15 mm, 0.2 μm syringe filters (Gen-Lab Ltd., Budapest, Hungary). A parallel artificial membrane permeability assay (PAMPA) system was used to determine the effective permeability (Pe) for the compounds of interest. […] After the incubation the PAMPA plates were separated and the compound concentrations in the donor (CD(t)) and acceptor (CA(t)) solutions, as well as in the donor solution at the zero time point (CD(0)) were determined by UHPLC-DAD. The effective permeability and the membrane retention in the PAMPA-BBB (1) and the PAMPA GI (2) experiments were calculated by the following equations [12]:(1) Pe=−2.303/A(t−τSS)·(VA·VD/VA+VD)·lg[1−(VA+VD/(1−MR)·VD)×(CA(t)/CD(0))] […]
(§2) All experiments were performed in triplicates on three consecutive days (n = 9), caffeine standard was used as positive, while rutin as negative control. ClogP values were calculated by ChemAxon Marvin 22.3.
On the technique in general: PAMPA measures passive passage across an artificial lipid membrane.

Data set [3] is described as follows: Parallel artificial membrane permeability assay for the gastrointestinal tract (PAMPA-GI). The following applies: donor pH 6.8, acceptor pH 7.4, 37 °C, 4 h, n = 9; Pe in cm/s; n.d. = not detected in the acceptor phase. It is filed as in vitro ADME. The protocol:
as §1, §2

“And” between values parts separate entries of the source, which are not always exact repeats. Equal values may be shown once.

For the molecule myricitrin [myricitrin (11)], in data set [1] (aqueous media), the “maximum decomposition rate measured” value is listed as 48.44%. Also, the “Aqueous stability pH = 1.2: compound concentration after 4 h of incubation compared to the initial value” in data set [1] (pH 1.2 simulated gastric fluid, n = 3) was 96.23 ± 2.46%. Moreover, the “Aqueous stability pH = 6.8: compound concentration after 4 h of incubation compared to the initial value” in data set [1] (n = 3, * p < 0.05 vs initial) is 99.94 ± 0.55%. Also, the “Aqueous stability pH = 7.4: compound concentration after 4 h of incubation compared to the initial value” in data set [1] (pH 7.4 PBS, n = 3, * p < 0.05 vs initial) is 48.44 ± 6.15% and 48.44 ± 6.15 * %. Also, in data set [1] (paired-sample t-test, p < 0.05, pH 1.2, 6.8, 7.4), the “Significance of decrease in compound concentration (in words)” value is reported as “decreased significantly only at pH 7.4”. Moreover, the “log Pe PAMPA-BBB” value in data set [2] is reported as “not detected in the acceptor phase”. Also, the “log Pe PAMPA-GI” value in data set [3] is given as “not detected in the acceptor phase”.

Take `O=C(/C=C/CCc1ccc(O)c(O)c1)CCc1ccc(O)c(O)c1` [hirsutenone (3), hirsutenone]: the “Aqueous stability pH = 6.8: compound concentration after 4 h of incubation compared to the initial value” in data set [1] (n = 3, * p < 0.05 vs initial) is given as 96.22 ± 2.87%.

These data come from article PMC9231376, “Membrane Permeability and Aqueous Stability Study of Linear and Cyclic Diarylheptanoids from Corylus maxima” (Pharmaceutics, 2022).
